# Experimental data: PMC11969009 (Nature Communications, 2025)
# Tested on: 47 human DUBs
# Assay: DUBprofiler specificity assay (Ubiquigent)
# Settings: 50 µM concentration
smiles,measurement,value
CO/N=C(/c1ccc2cc(OC)ccc2c1)C1CCCN(C2CCC(O)CC2)C1 (stereo not shown),inhibitory activity against 47 human DUBs,did not show any inhibitory activity
